Amino acid sequences for entries named in this document (tags omitted). A change or cut given only in a name is not applied to a line headed by its entry.
UniProt Q62758: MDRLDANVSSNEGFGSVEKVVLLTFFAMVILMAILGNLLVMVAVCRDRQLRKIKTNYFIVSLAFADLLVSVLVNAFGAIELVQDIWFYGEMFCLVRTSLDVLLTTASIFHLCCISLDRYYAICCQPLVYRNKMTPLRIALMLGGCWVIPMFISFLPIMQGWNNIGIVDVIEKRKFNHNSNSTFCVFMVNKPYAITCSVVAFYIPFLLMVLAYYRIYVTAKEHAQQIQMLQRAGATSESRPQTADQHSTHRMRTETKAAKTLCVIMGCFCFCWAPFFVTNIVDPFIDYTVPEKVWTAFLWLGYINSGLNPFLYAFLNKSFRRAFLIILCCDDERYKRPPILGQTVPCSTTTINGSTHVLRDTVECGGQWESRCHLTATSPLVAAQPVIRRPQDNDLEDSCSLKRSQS

According to ChEMBL document CHEMBL2440066, “Acidic biphenyl derivatives: synthesis and biological activity of a new series of potent 5-HT(4) receptor antagonists” (Bioorg Med Chem, 2013):

Target: 5-hydroxytryptamine receptor 4 (Rattus norvegicus) (UniProt Q62758)
Test: Antagonist activity at 5-HT4 receptor in rat carbachol-contracted esophagus muscularis mucosae assessed as inhibition of 5-HT-induced relaxation

pKb: 11.2
SMILES: COc1ccc(CCCN2CCC(CCC(=O)c3cc(Cl)c(N)c4c3OCCO4)CC2)cc1OC
